Assay [1] relates to HSP27 mRNA expression in A2058 cells (EGFR−). Kind of assay: HSP27 gene silencing activity in A2058 cells. The class given is cell-based, human. As to conditions: titrated + 100 nM cetuximab-(Lys-L-HSP27BNA)^4 (FIG. 9B). An excerpt: (§1) Upon release into the cytoplasm the antisense BNA recognizes and binds the mRNA encoding for HSP27, targeting the mRNA for destruction thereby depleting the HSP27 mRNA expression within the cancer cell.
(§2) RNA from cells was isolated and analysed according to standard protocols (Biorad)

Assay [2] has as its system HSP27 mRNA expression in A431 cells (EGFR++). Kind of assay: HSP27 gene silencing activity in A431 cells. The format is cell-based, human.
Source text: as §1, §2

In the case of “cetuximab-(Cys-L-SO1861)^3,8: cetuximab conjugated via cysteines and labile linker to SO1861, DAR 3,8”, the gene silencing activity result in assay [1] is “no gene silencing activity was observed”; in assay [2] (alone (FIG. 9A)), “did not show any gene silencing activity”. In assay [2] (titrated + 100 nM cetuximab-(Lys-L-HSP27BNA)^4), the HSP27 gene silencing result is recorded as “strong HSP27 gene silencing”.

(Values after patent US20250302983A1, “Saponin Conjugates” (priority 2018, published 2025).)
